Membrane permeability of cyclic peptides

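The data file gives no further conditions (lipid, pH, time, direction or concentration), and values from different papers need not be comparable. Other peptides of the study may be missing here. Peptides that the database sets to -10, its floor, are left out.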

PAMPA measures passive passage through an artificial lipid membrane.
Permeability is in 10^-6 cm/s, converted from the database's log10 values; higher is more permeable.

| SMILES | PAMPA (10^-6 cm/s) |
|---|---|
| CCCN1CC(=O)N(C)[C@H](CC(C)C)C(=O)N[C@@H](Cc2ccccc2)CC(=O)N2CCC[C@H]2C(=O)N(C)[C@H](CC(C)C)C(=O)N[C@@H](Cc2ccccc2)C(=O)N2CCC[C@H]2C1=O | 2.5 |
| CCCN1CC(=O)N[C@@H](CC(C)C)C(=O)N[C@@H](CC(C)C)C(=O)N2CCC[C@@H]2C(=O)N(C)[C@@H](CC(C)C)C(=O)N[C@@H](Cc2ccccc2)C(=O)N2CCC[C@H]2C1=O | 2 |
| CC(C)C[C@@H]1C(=O)N(C)[C@@H](CC(C)C)C(=O)N2CCC[C@@H]2C(=O)N(C)[C@H](CC(C)C)C(=O)N[C@@H](Cc2ccccc2)C(=O)N2CCC[C@@H]2C(=O)N[C@@H](C)C(=O)N1C | 9.8 |
| CC(C)C[C@H]1NC(=O)[C@H]2CCCN2C(=O)CN(Cc2ccccc2)C(=O)[C@@H](CC(C)C)NC(=O)[C@H](C)N(C)C(=O)[C@H](Cc2ccccc2)NC1=O | 6.3 |
| CC(C)C[C@@H]1C(=O)N(C)[C@@H](CC(C)C)C(=O)N2CCC[C@@H]2C(=O)N[C@H](CC(C)C)C(=O)N[C@@H](Cc2ccccc2)C(=O)N(C)[C@@H](C)C(=O)N1C | 4.3 |
| CCCN1CC(=O)N(C)[C@@H](CC(C)C)C(=O)N(C)[C@H](CC(C)C)C(=O)N2CCC[C@H]2C(=O)N(Cc2ccccc2)CC(=O)N[C@@H](Cc2ccccc2)C(=O)N2CCC[C@@H]2C1=O | 5.4 |
| CC(C)C[C@@H]1NC(=O)[C@@H](CC(C)C)NC(=O)[C@@H](C)N(C)C(=O)[C@H]2CCCN2C(=O)[C@H](Cc2ccccc2)NC(=O)[C@H](CC(C)C)N(C)C(=O)[C@@H]2CCCN2C1=O | 4.8 |
| CC(C)C[C@H]1C(=O)N(Cc2ccccc2)CC(=O)N2CCC[C@H]2C(=O)N(C)[C@@H](CC(C)C)C(=O)N[C@@H](Cc2ccccc2)C(=O)N2CCC[C@H]2C(=O)N[C@@H](Cc2ccccc2)CC(=O)N1C | 2 |
| CC(C)C[C@@H]1NC(=O)[C@H]2CCCN2C(=O)[C@H](CC(C)C)NC(=O)[C@@H](CC(C)C)N(C)C(=O)[C@H](C)NC(=O)[C@H](Cc2ccccc2)NC1=O | 2.5 |
| CC(C)C[C@@H]1NC(=O)[C@H](CC(C)C)N(C)C(=O)[C@H](C)N(C)C(=O)[C@H](Cc2ccccc2)NC(=O)CN(Cc2ccccc2)C(=O)[C@H]2CCCN2C1=O | 5.9 |
| CCCN1CC(=O)N[C@@H](CC(C)C)C(=O)N[C@@H](CC(C)C)C(=O)N2CCC[C@@H]2C(=O)N(C)[C@H](CC(C)C)C(=O)N[C@@H](Cc2ccccc2)C1=O | 7.1 |
| CC(C)C[C@@H]1NC(=O)[C@@H]2CCCN2C(=O)CN(Cc2ccccc2)C(=O)[C@@H](CC(C)C)NC(=O)[C@H](C)NC(=O)[C@H]2CCCN2C(=O)[C@H](Cc2ccccc2)NC1=O | 0.32 |
| CC(C)C[C@@H]1C(=O)N[C@H](CC(C)C)C(=O)N2CCC[C@@H]2C(=O)N[C@H](CC(C)C)C(=O)N[C@@H](Cc2ccccc2)C(=O)N2CCC[C@H]2C(=O)N(C)[C@@H](C)C(=O)N1C | 1.7 |
| CC(C)C[C@@H]1NC(=O)[C@@H]2CCCN2C(=O)CN(Cc2ccccc2)C(=O)[C@@H](CC(C)C)N(C)C(=O)[C@H](C)NC(=O)[C@H]2CCCN2C(=O)[C@H](Cc2ccccc2)NC1=O | 1.6 |
| CC(C)C[C@@H]1C(=O)N(C)[C@@H](CC(C)C)C(=O)N2CCC[C@@H]2C(=O)N[C@H](CC(C)C)C(=O)N[C@@H](Cc2ccccc2)C(=O)N[C@H](C)C(=O)N1C | 8.5 |
| CCCN1CC(=O)N[C@@H](CC(C)C)C(=O)N(C)[C@@H](CC(C)C)C(=O)N2CCC[C@@H]2C(=O)N[C@H](CC(C)C)C(=O)N[C@@H](Cc2ccccc2)C(=O)N2CCC[C@H]2C1=O | 1.3 |
| CCCN1CC(=O)N(C)[C@@H](CC(C)C)C(=O)N(C)[C@@H](CC(C)C)C(=O)N2CCC[C@H]2C(=O)N(Cc2ccccc2)CC(=O)N[C@@H](Cc2ccccc2)C(=O)N2CCC[C@H]2C1=O | 4.1 |
| CC(C)C[C@H]1NC(=O)C[C@H](Cc2ccccc2)NC(=O)[C@H](Cc2ccccc2)NC(=O)[C@@H](CC(C)C)NC(=O)[C@@H]2CCCN2C(=O)C[C@H](Cc2ccccc2)NC1=O | 1.9 |
| CC(C)C[C@@H]1NC(=O)[C@H](C)N(C)C(=O)[C@H]2CCCN2C(=O)[C@H](Cc2ccccc2)NC(=O)CN(Cc2ccccc2)C(=O)[C@@H]2CCCN2C(=O)[C@H](CC(C)C)N(C)C1=O | 8.3 |
| CC(C)C[C@@H]1C(=O)N[C@@H](Cc2ccccc2)C(=O)N2CCC[C@@H]2C(=O)N[C@@H](C)C(=O)N(C)[C@@H](CC(C)C)C(=O)N(Cc2ccccc2)CC(=O)N2CCC[C@@H]2C(=O)N1C | 0.37 |
| CC(C)C[C@@H]1NC(=O)[C@@H]2CCCN2C(=O)[C@@H](CC(C)C)N(C)C(=O)[C@H](CC(C)C)NC(=O)C[C@H](Cc2ccccc2)NC(=O)[C@H]2CCCN2C(=O)[C@H](Cc2ccccc2)NC1=O | 4.4 |

Again, the 2 entries with the lowest PAMPA:

{"smiles": "CC(C)C[C@@H]1NC(=O)[C@@H]2CCCN2C(=O)CN(Cc2ccccc2)C(=O)[C@@H](CC(C)C)NC(=O)[C@H](C)NC(=O)[C@H]2CCCN2C(=O)[C@H](Cc2ccccc2)NC1=O", "PAMPA (10^-6 cm/s)": "0.32"}
{"smiles": "CC(C)C[C@@H]1C(=O)N[C@@H](Cc2ccccc2)C(=O)N2CCC[C@@H]2C(=O)N[C@@H](C)C(=O)N(C)[C@@H](CC(C)C)C(=O)N(Cc2ccccc2)CC(=O)N2CCC[C@@H]2C(=O)N1C", "PAMPA (10^-6 cm/s)": "0.37"}

Values of Townsend et al. 2020, doi:10.26434/chemrxiv.13335941.v1, as listed in CycPeptMPDB.